Results on one compound are retold here after patent US5679674A (priority 1992, dated 1997).

The chains behind the UniProt entries cited, without tags or fusion partners. Where a name states a change or a piece, a line headed by the entry shows the natural chain unless it says otherwise. Residues count along the entry.
UniProt P41144: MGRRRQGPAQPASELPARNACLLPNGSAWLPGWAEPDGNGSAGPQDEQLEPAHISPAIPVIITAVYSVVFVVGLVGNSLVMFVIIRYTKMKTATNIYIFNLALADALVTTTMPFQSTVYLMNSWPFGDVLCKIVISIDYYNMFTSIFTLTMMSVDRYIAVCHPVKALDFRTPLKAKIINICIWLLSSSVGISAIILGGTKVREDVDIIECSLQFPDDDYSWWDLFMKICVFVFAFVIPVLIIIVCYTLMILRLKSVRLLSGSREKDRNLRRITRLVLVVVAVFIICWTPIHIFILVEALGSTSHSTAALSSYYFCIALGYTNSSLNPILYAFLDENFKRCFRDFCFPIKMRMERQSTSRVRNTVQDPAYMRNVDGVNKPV
UniProt A0ACM8Q262, 1-400: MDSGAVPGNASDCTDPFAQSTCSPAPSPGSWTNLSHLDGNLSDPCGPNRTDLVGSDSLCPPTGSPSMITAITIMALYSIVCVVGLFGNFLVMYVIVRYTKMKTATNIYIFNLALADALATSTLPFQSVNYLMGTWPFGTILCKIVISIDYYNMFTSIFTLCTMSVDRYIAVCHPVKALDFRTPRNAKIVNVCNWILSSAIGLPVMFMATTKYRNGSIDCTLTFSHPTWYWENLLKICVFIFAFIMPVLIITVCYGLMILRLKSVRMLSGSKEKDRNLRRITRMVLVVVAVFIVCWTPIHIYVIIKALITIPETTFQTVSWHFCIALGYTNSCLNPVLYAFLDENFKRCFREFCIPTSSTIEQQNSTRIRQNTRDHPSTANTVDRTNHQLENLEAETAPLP

What is called IC50 is the concentration that gives 50% inhibition.

The test system of assay [1] is p-Phenylquinone-induced agony (writhing response) in mice. Briefly: p-Phenylquinone-induced agony test in mice (hypodermic administration). Type of assay: in vivo, Male ddy mice. Particulars: p-phenylquinone 15 minutes after compound, ED50 by probit method.
A further assay has as its target k-receptor (Cavia porcellus, UniProt P41144). In words: Receptor-affinity test: binding to k-receptor. Particulars: read-out: Binding to the receptors (IC50, nM) k; 0.6 nM tritium-labelled ethylketocyclazocine; guinea pig brain membrane; 25° C., 45 minutes.
For the next assay, the target named is μ-receptor (Cavia porcellus, UniProt A0ACM8Q262). In words: Receptor-affinity test: binding to μ-receptor. Particulars: read-out: Binding to the receptors (IC50, nM) μ; 1 nM tritium-labelled DAGO; guinea pig brain membrane.

As for `CN(C(=O)Cc1ccc(Cl)c(Cl)c1)[C@@H]1CCCC[C@H]1N1CCCC1` (relative stereo), the “Analgesic effect (ED50, μg/kg sc) Phenylquinone-induced agony test” value in assay [1] was 490 µg/kg. In addition, the IC50 at k-receptor turned out to be 9.92 nM; on μ-receptor it was 636 nM.
